## Binding of CDR-mutated scFvs to a peptide of the spike HR2 region

Reference: Li et al. 2023, doi:10.1038/s41467-023-39022-2. File: FLAb, binding data.

All variants were tested on one target, the spike HR2 peptide PDVDLGDISGINAS (SARS-CoV-2).

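Designed CDR sequences, proposed from the first random library and measured here. Group labels follow the data file (Ctrl: baseline library sampled from a position-specific scoring matrix, with some repeated check sequences; Rand: our label for a block that the file lists under HC and that is probably the random mutants of the ten best first-round binders; En: ensemble of fine-tuned language models; GP: Gaussian process model; GPLM: also part of the Gaussian process libraries; HC: hill climbing; Gen: genetic algorithm; Gibbs: Gibbs sampling; a sequence that several methods proposed may carry one label only). The assay is AlphaSeq: two haploid yeast populations carry antibody and antigen on their surface. Binding brings cells together so that they mate, and sequencing counts the barcode pairs among the diploids. Each replicate has its own calibration line, from reference interactions of the BCL2 family. Each pool was mated in six replicate cultures.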

Ab-14 is the parent antibody, in scFv form: VH, then a (GGGGS)3 linker, then VL. The light chain is unchanged in all variants.
VH: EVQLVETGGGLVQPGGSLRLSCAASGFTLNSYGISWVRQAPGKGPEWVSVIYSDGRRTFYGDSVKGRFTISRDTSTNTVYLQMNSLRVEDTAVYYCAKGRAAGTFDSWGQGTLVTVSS
VL: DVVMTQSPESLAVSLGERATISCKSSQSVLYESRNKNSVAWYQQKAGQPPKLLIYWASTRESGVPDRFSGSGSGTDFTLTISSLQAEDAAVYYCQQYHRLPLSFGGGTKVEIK

Variants are written as CDR1, CDR2 and CDR3 of the heavy chain (limits as in the source). Parent: GFTLNSYGIS, VIYSDGRRTFYGDSVK, GRAAGTFDS. Values are log10 of the apparent Kd in nM; lower means stronger binding. Replicates are averaged; those with no signal do not enter the mean. "nd" marks a missing value. The strain was present, yet no cells mated with the target were sequenced in any replicate, which points to weak or no binding.

For GFTLDEYGIS | VIYSDGRRTFYGDSVK | GRAQGTFDS [Ctrl], the assay gave nd (0 of 6 replicates).
For GFSLDEYGIS | VIYADGMRTAYTQNVK | GLMQQGRTM [En_Gibbs], the assay gave nd (0 of 6 replicates).
For GFTLNSYGIS | VIYSDGRRTFYGDSVK | GRHAVTFDS [Ctrl], the assay gave nd (0 of 6 replicates).
For GFTLNSYGYS | VIYADGRRTFYGDSVK | GRAAGLFDS [Ctrl], the assay gave 2.36 (2 of 6 replicates).
For GFEIQEYGIS | VIYADGRRTAYAENVK | GTLAGTLST [En_Gibbs], the assay gave 0.47 (4 of 6 replicates).
For GFSLDEYGIS | VIYADGMRTAYAQTVK | GYNGSDGDK [En_Gibbs], the assay gave 2.80 (1 of 6 replicates).
For GFDLNEYGIS | VIYADGMRTFYVDSVK | GVNAGTFDV [En_HC], the assay gave 0.47 (6 of 6 replicates).
For GFDLNEYGIS | VIYADGRRTFYIDSVK | GEIAGTFNM [En_HC], the assay gave -0.30 (6 of 6 replicates).
For GFKIDEYGIS | VIYADGMRAHYSDAVK | GVKVGNVVM [En_Gibbs], the assay gave nd (0 of 6 replicates).
For GFDLDEYGIS | VIYADGRRTYYADDVK | GNVAGTFDV [En_HC], the assay gave -0.61 (6 of 6 replicates).
For GKTLNEYGIS | VIYSDGRRTFYGDSVK | GTAAGTFDS [Ctrl], the assay gave nd (0 of 6 replicates).
For GFTLNSYGIS | VIYSDGRRTFYSDDVK | GNAAGTFDS [GPLM_Gen], the assay gave -0.40 (5 of 6 replicates).
For GFDLDEYGIS | VIYADGMRSVYADSVK | GTGGGTIEA [En_Gibbs], the assay gave nd (0 of 6 replicates).
For GFSLNSYGIS | VIYSDGRRTFYADSVK | GRNAGTFDT [GPLM_Gen], the assay gave -0.04 (6 of 6 replicates).
For GFSLNSYGIS | VIYSDGRRTFYMDSVK | GRTAGTFDS [GPLM_Gen], the assay gave nd (0 of 6 replicates).
For LFELNSYGIS | VIYSDGRRTFYADSVK | GRTAGTFDS [GP_Gen], the assay gave 1.07 (6 of 6 replicates).
For GFTLNEYGIS | VIYSDGCRTFYGDSVK | GRAADTFHS [Ctrl], the assay gave nd (0 of 18 replicates).
For GFDLNSYGIS | VIYSDGRRTFYGDSVK | GKTAGTFDY [GP_Gen], the assay gave 0.31 (6 of 6 replicates).
For GFTLNSYGIS | VIYADGRRTFYGDSVK | GLAAGTFKM [GPLM_HC], the assay gave nd (0 of 6 replicates).
For GFTLDSYEIS | VIYSDGRRTFYGDSVK | GRAAGTALH [Rand], the assay gave nd (0 of 6 replicates).
For GFTLNSYGIS | VIYSDGERTFYGRSVK | NRAAGTFDQ [Ctrl], the assay gave nd (0 of 6 replicates).
For GFTLNSYGIS | VIYSDGRRTFYGDSVK | GRAPGTFDH [Ctrl], the assay gave 2.81 (1 of 6 replicates).
For GFQLNSYGIS | VIYSDGRRTFYADSVK | GTAAGTFDS [GPLM_Gen], the assay gave 0.85 (6 of 6 replicates).
For GFDLDEMGIS | VIYADGVRTAYIDQVK | GMGGTFMNV [En_Gibbs], the assay gave 0.37 (1 of 6 replicates).
For GFDLEEYGIS | VIYADGVRTAYADSVK | GENAGTFDV [En_Gen], the assay gave -0.02 (6 of 6 replicates).
For GFDLNEYGIS | VIYADGIRTFYADSVK | GNLAGTFDV [En_HC], the assay gave -0.56 (6 of 6 replicates).
For GFKLEEYGIS | VIYADGQRVAYQDKVK | GQHAGMFDQ [En_Gibbs], the assay gave 1.95 (6 of 6 replicates).
For GFNLGEYGIS | VIYADGRRTFYINSVK | GEFIVMNSI [En_Gibbs], the assay gave nd (0 of 6 replicates).
For GFTLNSYGIS | VIYADGRRTFYGDSVK | GRAAGTFDY [Ctrl], the assay gave 0.79 (6 of 6 replicates).
For GFSLNEYGIS | VIYSDGRRTFYGDSVK | GKAAGTFDA [GPLM_Gen], the assay gave -0.05 (6 of 6 replicates).
For GFQLNSYGIS | VIYSDGRRTFYGDSVK | GDAAGTFDS [GP_HC], the assay gave 1.14 (6 of 6 replicates).
For GFELNSYGIS | VIYSDGMRTFYGDSVK | GRTAGTFDS [GP_Gen], the assay gave 1.02 (5 of 6 replicates).
For GFTLESYGIS | VIYSDGRRTFYIDSVK | GRAAGTFTS [GP_HC], the assay gave nd (0 of 6 replicates).
For GFTLNEYGIS | VIYSDGRRTFYGDSVK | GRAADTFWS [GPLM_HC], the assay gave nd (0 of 6 replicates).
For GESLNEYGIS | VIYADGQRVKYSNNVK | GLHFGVFDM [En_Gibbs], the assay gave nd (0 of 6 replicates).
For GFNLNSYGIS | VIYSDGRRTFYGDSVK | GLNAGTFDS [GP_Gen], the assay gave 0.67 (6 of 6 replicates).
For GFDLNEYGIS | VIYADGQRTVYADSVK | GNVAGTFDV [En_Gen], the assay gave -0.65 (6 of 6 replicates).
For GFTANEYGIS | VIYSDGRRTFYTDSVK | GRFAGTFNS [Rand], the assay gave nd (0 of 6 replicates).
For GFTLNDYGIS | VIYSDGRRTFYDDSVK | GKAAGTFDS [GP_HC], the assay gave 0.44 (6 of 6 replicates).
For GFNLNEYGIS | VIYADGRRTFYSDSVK | GEAAGTFDV [En_HC], the assay gave -0.20 (6 of 6 replicates).
For GFGLGEYGIS | VIYADGTRTAYVTKVK | GVIAGMFFT [En_Gibbs], the assay gave nd (0 of 6 replicates).

Excerpt, the final 3 entries:

GFTLNDYGIS | VIYSDGRRTFYDDSVK | GKAAGTFDS [GP_HC]: 0.44 (6 of 6 replicates).
GFNLNEYGIS | VIYADGRRTFYSDSVK | GEAAGTFDV [En_HC]: -0.20 (6 of 6 replicates).
GFGLGEYGIS | VIYADGTRTAYVTKVK | GVIAGMFFT [En_Gibbs]: nd (0 of 6 replicates).

Some sequences occur more than once in the pool; their replicates are pooled. Values of this round are not directly comparable with the first-round values of the same sequences. Background: pairings of all heavy chain designs with three empty control strains gave a value in 1% of cases (median 2.08, 5th percentile 0.84). Values in that range, when seen in few replicates, are hard to tell from nonspecific mating. The authors averaged sequences with at least three values out of six and counted those with two or fewer as poor binders. The parent sequence was in this pool as ten entries: three were never detected, three once, and four in most replicates, with averages from 0.34 to 2.37.